A549 viability: A549 cytotoxicity, counter-screen for Nrf2 inhibitors; actives 0.16% (n = 390,000); Potency, µM (series often up to 46 µM), hits mostly inhibitors; A549 ARE-Fluc cells, CellTiter-Fluor viability, 18-24 h
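Cytotoxicity counterscreen: CellTiter-Fluor fluorescence was measured in A549 ARE_Fluc cells after 18-24 h of compound exposure in a concentration series. The subsequent BugLite luminescent read reports ARE-luciferase activity.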
p53 reactivation: re-activators of mutant p53; H1299 p53-A138V BP100-luciferase reporter, luminescence, 24 h; Potency, µM (series often up to 92.2 µM), most hits filed as activators; actives 0.063% (n = 320,000); also: nearly all actives have a fitted effect of over 45% in size
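H1299 (p53-null), stable ts p53-A138V + BP100-Luc; 1000 cells/well, Opti-MEM/10% FBS; cpd 4 pt, 1:5; 24 h, 37 deg C, 5% CO2; detection reagent 10 min RT; luminescence.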
Nrf2 inh: blocks Nrf2 signaling | actives 2.1% (n = 360,000) | A549 ARE-Fluc reporter, luciferase luminescence, 18-24 h | AID 504444 | Potency, µM (top dose mostly 46 µM), actives largely listed as inhibitors; also: nearly all actives have a fitted effect of over 60% in size
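Quantitative HTS in A549 cells stably bearing an antioxidant response element-firefly luciferase construct. Inhibition of Nrf2-driven transcription was scored by luminescence after 18-24 h of compound exposure at 37 °C.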
ClpP mod: qHTS Assay for Activators of ClpP; ATP-dependent Clp protease proteolytic subunit (Bacillus subtilis (strain 168)), P80244; purified B. subtilis ClpP, FRET peptide cleavage, 20 min; Potency, µM (highest dose often 57.5 µM); actives 1.9% (n = 340,000); active = well fitted falling curve with a large enough effect; inconclusive = small, poorly fitted or top-dose-only effect; inactive = no such curve, though single readings can be large or run the other way; also: the source files actives as falling curves though it sought activators and does not explain the sign; nearly all actives have a fitted effect of over 65% in size
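Purified B. subtilis ClpP, 10 microg/mL final in Tris/HCl pH8 with KCl, BSA, glycerol and Tween-20, cleaved an Abz/nitrotyrosine-quenched decapeptide. Fluorescence (ex 320, em 430) was read at 0 and 20 min at room temperature. Delta was normalized to 5.8 microM ADEP and DMSO/no-enzyme controls.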
miR-21 reporter: miR-21 reporter, rising signal; HeLa miR-21 FLuc reporter, luciferase, 48 h; Potency, µM (doses to about 38.3 µM); 340,000 tested, under 10 active; AID 2288; active = well fitted rising curve with a large enough effect; inconclusive = small, poorly fitted or top-dose-only effect; inactive = no such curve, though single readings can be large or run the other way;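 further: miR-21 action dims this reporter so a rising signal means less miR-21 action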
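HeLa cells stably expressing CMV-driven firefly luciferase with a downstream miR-21 binding sequence, endogenously expressing miR-21, were treated with titrations (up to about 40uM final) for 48 hours at 37 degree Celsius. Luciferase luminescence was read after lysis.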
Nrf2 ARE act: Nrf2 pathway activation. AID 624171. actives 0.31% (n = 410,000). Potency, µM (titrated, usually from 46.1 µM), usual class: activators. AREc32 ARE-luciferase reporter (MCF7-derived line), luminescence, 24 h; also: nearly all actives have a fitted effect of over 65% in size
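Nrf2 activation is followed as ARE-luciferase induction in the AREc32 line after one day of compound treatment; luminescence is read with Steady-Glo.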
Each line names hits and unclear results; the compound was inactive in the other large screens. Shown are actives, neighbours in structure and some others; about 3.7% of the full set was active somewhere. Unless noted, calls follow the shape of the dose curve; as a rule, active = well fitted curve in the direction sought with a large enough effect; inconclusive = small, poorly fitted or top-dose-only effect, or another doubt; inactive = no such curve, though single readings can be large; an effect the other way counts as inactive or inconclusive.

Cc1ccccc1Cn1nnc2c(=O)[nH]c(C3CCN(C(=O)c4ccccc4)CC3)nc21	none (no result: p53 reactivation)
O=C(O)/C(=C\c1ccc(Cl)c([N+](=O)[O-])c1)c1ccc(S(=O)(=O)N2CCCC2)s1	none (no result: miR-21 reporter)
O=C(O)/C(=C\c1ccc(Cl)c([N+](=O)[O-])c1)c1ccc(S(=O)(=O)N2CCCCC2)s1	ClpP mod 28µM
COc1ccc(-c2noc(N3CCC(C(=O)Nc4ccccc4Cl)CC3)n2)cc1	none
COc1ccc(-c2noc(N3CCC(C(=O)NC(C)c4ccccc4)CC3)n2)cc1 (stereo not given)	Nrf2 inh 23µM
COc1ccc(C(=O)N(Cc2ccccc2)Cc2ccco2)c(O)c1	none (no result: p53 reactivation, ClpP mod, miR-21 reporter, Nrf2 ARE act)
CC(=O)Nc1cccc(Oc2ncnc3scc(-c4ccc(C)cc4)c23)c1	A549 viability inconclusive, Nrf2 inh 18µM
Cc1ccc(-c2csc3ncnc(Oc4ccc5c(C)cc(=O)oc5c4)c23)cc1	ClpP mod 28µM
CNC(=O)COc1ncnc2scc(-c3ccc(F)cc3)c12	none
COc1cccc(CNC(=O)CC(c2ccc(F)cc2)N2Cc3ccccc3C2=O)c1 (stereo not given)	none (no result: p53 reactivation)
Cc1cccn2c(=O)c3cc(C(=O)NCc4ccccc4Cl)sc3nc12	none (no result: p53 reactivation)
COc1ccc(OC)c(CCNC(=O)C(=O)Nc2ccc3nc4n(c(=O)c3c2)CCCCC4)c1	Nrf2 inh 21µM
O=C(CN1CCCCC1)Nc1ccc(NC(=O)c2ccc(Cl)cc2)cc1Cl	ClpP mod 14µM
Cc1cccc(Cn2ncc3c4sc(C)cc4n(C)c3c2=O)c1	none (no result: p53 reactivation, ClpP mod, miR-21 reporter, Nrf2 ARE act)
O=C(CSc1ccc(C(F)(F)F)cc1[N+](=O)[O-])Nc1ccc2ccccc2c1	Nrf2 inh inconclusive, ClpP mod 28µM
Brc1ccc[n+](CCC2CCCCC2)c1	none (no result: A549 viability, p53 reactivation, Nrf2 inh, miR-21 reporter, Nrf2 ARE act)
CN(C(=O)COc1ccc2ccc(=O)oc2c1)C1CCS(=O)(=O)C1 (stereo not given)	none
CC(=O)OC(C=C(C)C)C/C(C)=C/COc1c2ccoc2cc2oc(=O)ccc12 (stereo not given)	none (no result: p53 reactivation, miR-21 reporter)
CCN(C(=O)COc1ccc2ccc(=O)oc2c1)C1CCCCC1	ClpP mod 25µM (no result: miR-21 reporter)
CN(C)C(=O)COc1ccc2ccc(=O)oc2c1	ClpP mod 32µM
CC(C)CN(C(=O)COc1ccc2ccc(=O)oc2c1)C1CCS(=O)(=O)C1 (stereo not given)	none
CC(C)=CC(O)C/C(C)=C/COc1ccc2ccc(=O)oc2c1 (stereo not given)	Nrf2 inh 10µM
COc1ccc(-c2noc(CNS(=O)(=O)c3ccc(Br)cc3)n2)cc1OC	none (no result: p53 reactivation)
O=C1CN(C(=O)COC(=O)/C=C/c2ccco2)c2ccccc2N1	Nrf2 ARE act 13µM
COc1ccc(C2CC(=O)c3cc(-c4nc(-c5ccc(C)cc5)cs4)c(=O)[nH]c3C2)cc1 (stereo not given)	none (no result: p53 reactivation)
CCSc1nc(-c2ccc(OC)cc2)n(-c2nc3ccccc3s2)n1	ClpP mod 28µM
Cc1ccc(C)c(N2CCN(C(=O)Cn3c(-c4cccs4)cc4ccccc43)CC2)c1	ClpP mod 16µM (no result: p53 reactivation)
Cc1cccc(N2CCN(C(=O)Cn3c(-c4cccs4)cc4ccccc43)CC2)c1C	ClpP mod 16µM (no result: p53 reactivation)
Cc1ccc(C)c(N2CCN(C(=O)Cn3ncc4ccsc4c3=O)CC2)c1	Nrf2 inh inconclusive (no result: p53 reactivation)
Cc1cccc(N2CCN(C(=O)c3cccs3)CC2)c1C	none
O=C(Nc1ccc(S(=O)(=O)NC2=NCCCCC2)cc1)c1ccc(Cl)cc1Cl	Nrf2 inh 16µM (no result: miR-21 reporter)
CCCOc1ccc(C(=O)Nc2ccc(S(=O)(=O)NC3=NCCCCC3)cc2)cc1	Nrf2 inh 18µM (no result: miR-21 reporter)
CCOc1ncccc1C(=O)Nc1ccc(S(=O)(=O)NC2=NCCCCC2)cc1	Nrf2 inh inconclusive (no result: ClpP mod)
O=C1CC(Sc2nnc(-c3ccccc3O)o2)C(=O)N1c1ccccc1 (stereo not given)	miR-21 reporter inconclusive
